Results taken from patent publication US10877024B2, “Methods of determining interferon having direct inhibitory effects on tumors and uses thereof” (SUPERLAB FAR EAST LIMITED, priority 2015, dated 2020).

What was measured:
[1] = test system: Human Colon Cancer HT-29 Xenografts; assay: rSIFN-co on human colon cancer HT-29 xenografts in nude mice; format: in vivo; conditions: 0.15 mg/mouse i.t. every other day
[2] = test system: SW620 tumor cells; assay: Cell viability, MTT assay, 1-6 days; format: cell-based, human; conditions: 10 μg/ml
[3] = test system: Lung cancer cells, A549; assay: Colony and pseudopod formation in three dimensional Matrigel culture; format: cell-based, human; conditions: 10 mcg/ml, after 8 days
[4] = test system: beta-catenin; assay: Beta-catenin protein level by Western Blot; format: cell-based, human; conditions: 10 mcg/ml, 24, 48, 72 hr
[5] = test system: procaspase-3, cleaved caspase-3, procaspase-8, cleaved caspase-8, PARP; assay: Apoptosis-related molecular markers by Western Blot; format: cell-based, human; conditions: A549 and SW620 cells, 24 hr or 48 hr; interferons 10 mcg/ml
[6] = test system: human lung cancer SPC-A4 xenografts; conditions: 0.15 mg/mouse i.t. every other day

With “IFN alpha-2b: Comparator interferon alpha-2b, from Huiyang Life Science and Technology Corp. or Shanghai Hua-xin High Biotechnology [reference compound]” the “TV(mm^3, mean ± SD) (D 0)” value ([1]; day 0) was 128 ± 44 mm^3, the “TV(mm^3, mean ± SD) (D 28)” value ([1]; day 28) was 831 ± 420 mm^3 and the “cell viability over time (MTT)” value [2] was “little time-dependent effect, if any”. For the same substance, the “invasive feet (pseudopod) formation” value [3] was “peduopod formation was obvious”, the beta-catenin protein level ([4]; A549 cells) was “did not cause any apparent decrease in beta-catenin level” and the beta-catenin protein level ([4]; SW480 cells) was “did not cause any apparent decrease in beta-catenin level”. For the same substance, the “level of cleaved caspase-3 and cleaved caspase-8” value [5] was “neither of the interferons, IFN alpha-2b nor rSIFN-co, caused any reduction in the level of procaspase-3 or procaspase-8 or PARP, or induced any enhancement”, the “level of procaspase-3, procaspase-8 and PARP” value [5] was “neither of the interferons, IFN alpha-2b nor rSIFN-co, caused any reduction” and the “TV(mm^3, mean ± SD) (D 0)” value ([6]; day 0) was 191 ± 44 mm^3. The “TV(mm^3, mean ± SD) (D 21)” value ([6]; day 21) was 4908 ± 2433 mm^3.
